Consider 2 compounds from patent publication US20140155420A1, “INHIBITORS OF EYA2” (The Regents of the University of Colorado, a body corporate, priority 2011, published 2014).

Read-outs that look alike come from different tables or passages of the source.

For this experiment, the target named is T1, Eya2 ED (Homo sapiens, UniProt O00167).
T1 sequence (O00167 253-538): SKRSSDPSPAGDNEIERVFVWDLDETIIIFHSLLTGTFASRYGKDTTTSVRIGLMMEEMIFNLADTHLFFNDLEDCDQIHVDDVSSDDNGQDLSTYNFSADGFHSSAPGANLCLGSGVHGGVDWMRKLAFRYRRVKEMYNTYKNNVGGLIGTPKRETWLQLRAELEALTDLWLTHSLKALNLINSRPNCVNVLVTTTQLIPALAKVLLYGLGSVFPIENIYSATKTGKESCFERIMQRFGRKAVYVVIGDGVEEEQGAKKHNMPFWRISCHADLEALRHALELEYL
The note with it: for IC50: read-out: IC50, inhibition of Eya2 ED phosphatase activity.

As for `O=C(O)CN(CCN(CC(=O)O)CC(=O)O)CC(=O)O` [EDTA], where the note is “OMFP substrate”, the “Inhibition of Eya2 ED phosphatase activity” value is reported as “inhibited” and the IC50 came out at 65 µM. For `O=C(O)CN(CCOCCOCCN(CC(=O)O)CC(=O)O)CC(=O)O` [EGTA], the IC50 came to 65 µM.

One may read the IC50 as the concentration needed to halve the response being measured.
